Assays:
[1] = target: Cathepsin D (purified human CatD, Enzo Life Sciences) (human) (UniProt P07339)
[2] = target: Cathepsin D (purified human CatD, Enzo Life Sciences) (human) (UniProt P07339); remark: listed apart in the source
[3] = target: Cathepsin D (purified human CatD, Enzo Life Sciences) (human) (UniProt P07339); remark: listed apart in the source
[4] = target: Cathepsin D (purified human CatD, Enzo Life Sciences) (human) (UniProt P07339); assay: SPR; Biacore S51, CM5 chip; CatD amine-coupled to the chip; Aβ peptides flowed in 50 mM Na-citrate, 200 mM NaCl, 1 mM EDTA, 2 mM DTT, 0.005% Tween-20, pH 4.5; triplicate, 3-fold dilution series beginning at […]; simple 1:1 interaction model

Amino acid sequences for entries named in this document (tags omitted). A change or cut given only in a name is not applied to a line headed by its entry.
UniProt P07339: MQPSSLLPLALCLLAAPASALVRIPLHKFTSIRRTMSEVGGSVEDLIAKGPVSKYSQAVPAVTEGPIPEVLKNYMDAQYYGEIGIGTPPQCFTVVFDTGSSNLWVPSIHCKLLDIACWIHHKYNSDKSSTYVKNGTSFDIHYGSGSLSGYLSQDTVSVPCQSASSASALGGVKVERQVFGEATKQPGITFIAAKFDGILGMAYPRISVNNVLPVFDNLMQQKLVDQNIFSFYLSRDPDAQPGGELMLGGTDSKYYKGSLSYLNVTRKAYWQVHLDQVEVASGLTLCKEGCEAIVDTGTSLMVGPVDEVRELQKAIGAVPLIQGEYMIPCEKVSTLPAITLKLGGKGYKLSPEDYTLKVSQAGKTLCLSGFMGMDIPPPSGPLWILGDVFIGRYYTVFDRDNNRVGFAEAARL

inhibition of CatD activity (fluorogenic substrate) by 1 μM peptide [1] [%] | IC50 of inhibition of CatD activity (nominal ~ 1 nM CatD), fluorescence dequenching assay with a fluorogenic substrate [2] [nM] | KM of degradation of monomeric Aβ40 by CatD at pH 4.0, Aβ quantified by ELISA [3] [μM] | Kd [4] [nM] | Substance
> 90 |  |  |  | α-secretase-derived p3 fragment of APP ending at position 42 (Aβ(17–42)) (peptide)
90 | 0.96 |  |  | human amyloid β-protein 1-42 (monomeric human Aβ42) (from UniProt P05067 672-713) (peptide)
 |  | 1.51 | > 333 | human amyloid β-protein 1-40 (monomeric human Aβ40) (from UniProt P05067 672-711) (peptide)

— publication PMC7339583 (Alzheimer's Research & Therapy, 2020)
